The list shows a part of the results, in another mix than the full data. Inconclusive results are not listed. For some of these results: Measured potencies and affinities stand elsewhere. Active and inactive are the calls of the source. Unless noted, calls come from the whole dose curve; as a rule, active = well fitted curve in the direction sought with a large enough effect; inconclusive = small, poorly fitted or top-dose-only effect, or another doubt; inactive = no such curve, though single readings can be large; an effect the other way counts as inactive or inconclusive.
How the values were obtained:
[1] = Validation screen for small molecules that induce genotoxicity in human embryonic kidney (HEK293T) cells expressing luciferase-tagged ELG1 (AID 493106); settings: luminescence; at 46.1 µM (top of the series); note: 0% is about no effect
Method in brief: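 HEK293T cells expressing luciferase-tagged ELG1, 2,000 cells/well, exposed to compound 16 hr at 37 °C, 5% CO2. Luciferase read after ONE-Glo, 30 min at room temperature; increased signal indicates genetic stress.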

Protein sequences, listed by entry. Tags and fused reporters are not part of them. Lines headed by an entry give the natural chain unless they say otherwise; changes in a name come on top.
UniProt Q96QE3: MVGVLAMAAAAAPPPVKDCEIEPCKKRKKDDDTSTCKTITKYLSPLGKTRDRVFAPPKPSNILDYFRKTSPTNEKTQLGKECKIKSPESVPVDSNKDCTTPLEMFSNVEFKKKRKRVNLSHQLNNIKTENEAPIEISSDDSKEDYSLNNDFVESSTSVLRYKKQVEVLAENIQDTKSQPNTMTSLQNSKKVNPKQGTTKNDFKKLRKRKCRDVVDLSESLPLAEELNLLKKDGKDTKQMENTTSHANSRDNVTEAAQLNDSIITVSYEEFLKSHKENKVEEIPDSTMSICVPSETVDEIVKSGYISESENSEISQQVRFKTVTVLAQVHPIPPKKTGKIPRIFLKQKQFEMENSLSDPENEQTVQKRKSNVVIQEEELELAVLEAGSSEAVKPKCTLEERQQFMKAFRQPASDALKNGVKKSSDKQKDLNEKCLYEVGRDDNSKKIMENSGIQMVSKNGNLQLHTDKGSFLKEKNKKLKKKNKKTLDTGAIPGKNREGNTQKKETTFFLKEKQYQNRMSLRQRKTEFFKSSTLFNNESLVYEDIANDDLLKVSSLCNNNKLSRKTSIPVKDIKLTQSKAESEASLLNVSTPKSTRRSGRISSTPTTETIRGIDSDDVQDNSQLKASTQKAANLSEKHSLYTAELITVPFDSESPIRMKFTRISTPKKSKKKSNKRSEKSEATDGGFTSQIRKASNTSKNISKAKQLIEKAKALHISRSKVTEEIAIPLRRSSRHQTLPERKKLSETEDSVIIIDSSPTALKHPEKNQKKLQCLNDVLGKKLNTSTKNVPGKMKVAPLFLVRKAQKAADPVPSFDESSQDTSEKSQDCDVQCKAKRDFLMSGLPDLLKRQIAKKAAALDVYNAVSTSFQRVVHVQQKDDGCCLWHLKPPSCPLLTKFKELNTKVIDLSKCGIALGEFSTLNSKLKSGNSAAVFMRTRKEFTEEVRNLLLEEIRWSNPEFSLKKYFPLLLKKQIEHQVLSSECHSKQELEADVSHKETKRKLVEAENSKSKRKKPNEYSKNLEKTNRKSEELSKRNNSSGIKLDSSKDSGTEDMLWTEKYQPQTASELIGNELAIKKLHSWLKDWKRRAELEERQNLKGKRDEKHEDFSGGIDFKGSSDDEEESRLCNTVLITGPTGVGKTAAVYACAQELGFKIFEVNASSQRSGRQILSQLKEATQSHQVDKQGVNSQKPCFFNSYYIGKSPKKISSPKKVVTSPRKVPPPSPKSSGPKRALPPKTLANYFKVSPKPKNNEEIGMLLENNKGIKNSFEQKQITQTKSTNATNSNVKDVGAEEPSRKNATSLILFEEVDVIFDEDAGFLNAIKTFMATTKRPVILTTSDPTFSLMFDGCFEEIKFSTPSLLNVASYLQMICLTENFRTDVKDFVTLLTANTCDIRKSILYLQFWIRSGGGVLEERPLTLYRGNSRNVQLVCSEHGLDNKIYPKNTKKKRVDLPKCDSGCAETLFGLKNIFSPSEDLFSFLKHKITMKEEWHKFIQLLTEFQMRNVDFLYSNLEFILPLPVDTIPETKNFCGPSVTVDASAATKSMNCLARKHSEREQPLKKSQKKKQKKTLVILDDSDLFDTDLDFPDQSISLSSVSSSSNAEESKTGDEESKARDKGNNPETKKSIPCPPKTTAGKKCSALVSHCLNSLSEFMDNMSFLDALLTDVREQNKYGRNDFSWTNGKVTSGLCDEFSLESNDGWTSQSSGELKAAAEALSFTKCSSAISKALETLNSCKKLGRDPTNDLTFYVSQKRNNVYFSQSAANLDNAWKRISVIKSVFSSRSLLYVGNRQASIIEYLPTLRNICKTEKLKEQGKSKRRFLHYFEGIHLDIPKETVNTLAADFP
UniProt P34981: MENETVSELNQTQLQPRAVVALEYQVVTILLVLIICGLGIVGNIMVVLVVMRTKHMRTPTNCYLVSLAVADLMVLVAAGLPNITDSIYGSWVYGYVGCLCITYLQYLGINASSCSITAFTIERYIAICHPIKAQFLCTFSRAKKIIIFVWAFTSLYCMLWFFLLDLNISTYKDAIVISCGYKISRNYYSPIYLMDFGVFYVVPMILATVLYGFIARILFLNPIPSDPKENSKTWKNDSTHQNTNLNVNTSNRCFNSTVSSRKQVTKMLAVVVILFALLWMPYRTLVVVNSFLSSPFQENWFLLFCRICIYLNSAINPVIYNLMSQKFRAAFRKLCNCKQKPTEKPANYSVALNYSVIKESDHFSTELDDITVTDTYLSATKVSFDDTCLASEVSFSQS
UniProt P51570: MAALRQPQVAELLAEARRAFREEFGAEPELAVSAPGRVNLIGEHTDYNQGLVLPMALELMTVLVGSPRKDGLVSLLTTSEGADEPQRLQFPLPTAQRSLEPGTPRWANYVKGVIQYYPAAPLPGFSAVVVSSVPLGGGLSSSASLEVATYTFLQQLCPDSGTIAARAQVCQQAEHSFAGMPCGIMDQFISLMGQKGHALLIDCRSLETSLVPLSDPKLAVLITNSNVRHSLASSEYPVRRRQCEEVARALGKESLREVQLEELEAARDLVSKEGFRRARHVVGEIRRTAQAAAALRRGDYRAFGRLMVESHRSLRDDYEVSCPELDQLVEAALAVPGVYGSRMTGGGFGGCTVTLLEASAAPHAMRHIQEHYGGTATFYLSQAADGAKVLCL
UniProt Q13526, whole entry, looked up: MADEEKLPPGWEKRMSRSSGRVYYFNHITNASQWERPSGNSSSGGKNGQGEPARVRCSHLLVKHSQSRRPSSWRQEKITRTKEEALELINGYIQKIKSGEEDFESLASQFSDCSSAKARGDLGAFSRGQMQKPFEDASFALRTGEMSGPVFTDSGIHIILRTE
UniProt O94782: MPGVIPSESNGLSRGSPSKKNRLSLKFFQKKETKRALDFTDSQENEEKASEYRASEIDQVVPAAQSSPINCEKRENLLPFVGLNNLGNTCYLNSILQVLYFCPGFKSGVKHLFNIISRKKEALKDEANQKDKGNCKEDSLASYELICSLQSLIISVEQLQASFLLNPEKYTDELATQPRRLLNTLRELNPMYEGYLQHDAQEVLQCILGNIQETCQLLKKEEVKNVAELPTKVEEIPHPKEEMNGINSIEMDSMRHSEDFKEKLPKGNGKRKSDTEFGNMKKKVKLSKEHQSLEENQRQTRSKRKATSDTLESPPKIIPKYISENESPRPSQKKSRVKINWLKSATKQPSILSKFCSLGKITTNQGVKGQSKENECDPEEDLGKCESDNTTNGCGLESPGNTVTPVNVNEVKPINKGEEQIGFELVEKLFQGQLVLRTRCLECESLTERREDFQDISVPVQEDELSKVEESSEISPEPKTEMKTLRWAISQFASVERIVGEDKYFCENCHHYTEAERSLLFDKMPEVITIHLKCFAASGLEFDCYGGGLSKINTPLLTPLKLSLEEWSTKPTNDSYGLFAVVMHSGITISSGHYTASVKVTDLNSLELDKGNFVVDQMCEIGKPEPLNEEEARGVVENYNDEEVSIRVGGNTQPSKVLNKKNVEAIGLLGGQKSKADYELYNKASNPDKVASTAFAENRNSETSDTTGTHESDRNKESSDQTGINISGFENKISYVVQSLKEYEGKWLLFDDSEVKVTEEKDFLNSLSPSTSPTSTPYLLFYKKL
UniProt Q12809: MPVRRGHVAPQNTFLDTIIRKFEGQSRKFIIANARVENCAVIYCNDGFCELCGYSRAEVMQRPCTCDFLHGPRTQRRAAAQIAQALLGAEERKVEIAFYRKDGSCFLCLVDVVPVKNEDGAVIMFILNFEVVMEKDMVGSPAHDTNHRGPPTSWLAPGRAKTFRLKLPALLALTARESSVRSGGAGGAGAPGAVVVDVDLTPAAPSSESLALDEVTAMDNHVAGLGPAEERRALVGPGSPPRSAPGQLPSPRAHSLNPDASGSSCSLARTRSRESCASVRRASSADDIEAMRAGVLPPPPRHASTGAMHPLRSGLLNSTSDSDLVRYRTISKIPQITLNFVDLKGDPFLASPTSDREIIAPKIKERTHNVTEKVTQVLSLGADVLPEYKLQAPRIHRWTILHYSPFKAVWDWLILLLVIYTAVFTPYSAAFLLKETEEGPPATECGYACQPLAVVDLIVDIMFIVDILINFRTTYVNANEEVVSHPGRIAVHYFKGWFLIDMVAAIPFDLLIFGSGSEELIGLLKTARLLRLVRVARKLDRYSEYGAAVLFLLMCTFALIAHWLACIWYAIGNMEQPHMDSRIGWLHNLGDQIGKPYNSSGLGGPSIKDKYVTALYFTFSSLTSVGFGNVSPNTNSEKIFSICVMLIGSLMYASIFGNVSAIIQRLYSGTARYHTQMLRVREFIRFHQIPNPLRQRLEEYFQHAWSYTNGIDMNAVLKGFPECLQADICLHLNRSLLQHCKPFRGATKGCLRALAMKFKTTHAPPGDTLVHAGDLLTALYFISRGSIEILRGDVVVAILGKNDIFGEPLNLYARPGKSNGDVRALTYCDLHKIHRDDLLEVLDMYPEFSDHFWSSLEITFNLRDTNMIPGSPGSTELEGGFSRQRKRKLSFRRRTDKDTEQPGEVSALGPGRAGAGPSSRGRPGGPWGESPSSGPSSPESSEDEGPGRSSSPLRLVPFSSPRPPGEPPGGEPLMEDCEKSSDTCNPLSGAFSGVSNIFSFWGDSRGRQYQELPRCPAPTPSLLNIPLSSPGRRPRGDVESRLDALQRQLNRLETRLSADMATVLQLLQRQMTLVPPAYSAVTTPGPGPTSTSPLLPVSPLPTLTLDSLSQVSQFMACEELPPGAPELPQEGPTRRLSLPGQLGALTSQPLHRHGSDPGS
UniProt O94925: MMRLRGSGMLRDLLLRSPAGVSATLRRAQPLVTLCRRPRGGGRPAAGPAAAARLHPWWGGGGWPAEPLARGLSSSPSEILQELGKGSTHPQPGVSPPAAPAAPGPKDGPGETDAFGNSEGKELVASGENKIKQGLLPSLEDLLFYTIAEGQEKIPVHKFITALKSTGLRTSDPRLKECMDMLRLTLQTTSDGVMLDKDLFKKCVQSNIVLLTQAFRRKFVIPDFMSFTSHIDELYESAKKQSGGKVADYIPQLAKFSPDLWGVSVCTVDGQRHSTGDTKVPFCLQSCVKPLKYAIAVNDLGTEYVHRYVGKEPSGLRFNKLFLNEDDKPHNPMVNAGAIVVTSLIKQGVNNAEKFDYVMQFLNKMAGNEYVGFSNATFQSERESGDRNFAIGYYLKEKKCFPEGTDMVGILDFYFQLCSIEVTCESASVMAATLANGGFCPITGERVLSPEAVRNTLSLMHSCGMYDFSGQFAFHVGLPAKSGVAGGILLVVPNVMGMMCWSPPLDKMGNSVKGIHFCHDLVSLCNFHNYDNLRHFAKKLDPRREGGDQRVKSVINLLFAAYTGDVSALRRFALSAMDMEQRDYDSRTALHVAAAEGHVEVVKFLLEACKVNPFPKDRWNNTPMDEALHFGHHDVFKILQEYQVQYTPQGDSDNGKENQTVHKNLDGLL
UniProt P43220, whole entry, looked up: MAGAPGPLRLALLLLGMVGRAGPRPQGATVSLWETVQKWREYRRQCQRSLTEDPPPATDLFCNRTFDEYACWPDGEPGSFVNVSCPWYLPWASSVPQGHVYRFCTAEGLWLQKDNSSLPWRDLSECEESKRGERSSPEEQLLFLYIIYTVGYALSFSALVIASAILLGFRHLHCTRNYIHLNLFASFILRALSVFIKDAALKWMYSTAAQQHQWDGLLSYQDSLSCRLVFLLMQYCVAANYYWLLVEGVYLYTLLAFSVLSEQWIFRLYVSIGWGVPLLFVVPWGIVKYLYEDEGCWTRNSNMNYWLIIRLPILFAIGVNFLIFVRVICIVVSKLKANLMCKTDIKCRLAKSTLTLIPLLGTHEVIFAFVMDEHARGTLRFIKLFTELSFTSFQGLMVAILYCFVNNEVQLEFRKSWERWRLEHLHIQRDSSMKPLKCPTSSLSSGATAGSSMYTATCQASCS

[2] = molecular target: ATPase family AAA domain-containing protein 5 (Homo sapiens) (UniProt Q96QE3); assay: Validation screen for small molecules that inhibit ELG1-dependent DNA repair in human embryonic kidney (HEK293T) cells expressing luciferase-tagged ELG1 (AID 493107); settings: HEK293T ELG1-luciferase level, luminescence, 5-fluorouridine co-treatment, 16 h; at 46.1 µM (top of the series);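 note: cells co-treated with the DNA-damaging agent 5-fluorouridine alongside compound; % is set by controls: 0 for no effect and ±100 for the full control effect; inhibitors lower the ELG1-luciferase luminescence signal; nearly all actives have a fitted effect of over 70% in size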
Method in brief: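 HEK293T cells expressing luciferase-tagged ELG1, 2,000 per well, treated with 5-fluorouridine plus compound for 16 h at 37 C. ONE-Glo luminescence after 30 min at room temperature reports ELG1 reporter level.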

[3] = molecular target: Thyrotropin-releasing hormone receptor (Homo sapiens) (UniProt P34981); assay: qHTS for Small Molecule Agonists and Allosteric Enhancers of Human TRH Receptor: Validation Screen for Agonists (AID 493127;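 active = calcium activation more than 3 SD above the typical response in the agonist read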; note: 0% is about no effect); settings: TRH receptor agonist cell assay; at 2 µM; hits give high values
Method in brief: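 TRHR cells loaded with fluo-8 calcium dye; FDSS kinetic fluorescence (Ex 480/Em 530) read at 1 s/cycle after 23 nL compound addition. Agonist-mode calcium response recorded before the 10 nM TRH (EC20) addition.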

[4] = qHTS for Inhibitors of Cell Surface uPA Generation: Validation Assay (AID 493164); settings: mouse cells, plasminogen activation; at 38.3 µM (top of the series); note: 0% is about no effect
Method in brief: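 RAW 264.7 cells (4000/well) were plated overnight, then exposed for 18 h at 37 C, 5% CO2 to compounds in a 7-point 1:5 titration (2.45 nM–38.3 uM final). Intracellular ATP was read by ATP-Lite luminescence.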

[5] = molecular target: Galactokinase (Homo sapiens) (UniProt P51570); assay: qHTS Validation Assay for Inhibitors of Human Galactokinase (GALK) (AID 493189); settings: purified human GALK enzyme activity, qHTS 7-point titration; at 57.5 µM (top of the series); note: 0% is about no effect
Method in brief: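 Luminescence from leftover ATP (Kinase-Glo Plus, 10 min) served as read-out after a 1 h room-temperature reaction of 5 nM GALK, 100 uM galactose and 35 uM ATP at pH8.0.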

[6] = Validation screen for small molecules that induce DNA re-replication in SW480 colon adenocarcinoma cells (AID 504364); settings: DNA re-replication phenotype (high-content imaging); at 46.1 µM (top of the series); note: 0% is about no effect
Method in brief: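 SW480 cells (250/well) exposed 48 h at 37 C, 5% CO2, then Hoechst-stained 40 min. Nuclear DNA content imaged by fluorescence scanning (405 nm excitation, 500-530 nm emission); re-replication scored as increased nuclei with elevated intensity.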

[7] = molecular target: Peptidyl-prolyl cis-trans isomerase NIMA-interacting 1 (Homo sapiens) (UniProt Q13526); assay: qHTS Validation Assay to Find Inhibitors of Pin1 (AID 504536; active = well fitted inhibition curve with a large enough effect in the polarisation, with a control signal flat, not every such curve was filed as active; the % refers to the polarisation;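 note: 0% = full Pin1 enzyme wells and -100% = no-enzyme wells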); settings: Pin1 fluorescence polarization peptide binding assay; at 57.5 µM (top of the series)
Method in brief: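 Fluorescence polarization competition: compounds (titration) displace HiFluor-488-labeled Pin1-1b peptide from Pin1 (0.3 uM final) in pH 7.5 HEPES buffer with DTT, 10 min at room temperature; %Activity normalized to no-enzyme wells, curves fitted.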

[8] = Inducers of the Endoplasmic Reticulum Stress Response (ERSR) in human glioma: Validation (AID 504836); settings: human glioma cells, ER stress response reporter; at 38.3 µM (top of the series); note: 0% is about no effect
Method in brief: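 ERSR induction read as luciferase luminescence (Bright-Glo, 10 min at room temperature) in stably transfected human U87-MG glioma cells exposed to compounds for 16 h, using GRP78 as sensor.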

[9] = molecular target: Ubiquitin carboxyl-terminal hydrolase 1 (Homo sapiens) (UniProt O94782); assay: Inhibitors of USP1/UAF1: Pilot qHTS (AID 504865); settings: purified USP1/UAF1, Ub-rhodamine cleavage fluorescence; at 114 µM (top of the series);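 note: rhodamine fluorescence freed from ubiquitin-rhodamine substrate followed over time; top concentration of the series differs between compounds; % is set by controls: 0 for no effect and ±100 for the full control effect; nearly all actives have a fitted effect of over 35% in size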
[10] = qHTS for Inhibitors of ATXN expression: Validation of Cytotoxic Assay (AID 588349); settings: cytotoxicity counter-screen for ATXN expression inhibitors, cell viability; at 57.1 µM (top of the series); note: % is set by controls: 0 for no effect and ±100 for the full control effect
Method in brief: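 HEK293 cells treated with titrated compound for 72 hr at 37 degrees C; viability read as intracellular ATP by CellTiter Glo luminescence.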

[11] = qHTS for Inhibitors of ATXN expression: Validation (AID 588378); settings: cell-based ATXN2 expression reporter assay, luminescence; at 57.1 µM (top of the series); note: % is set by controls: 0 for no effect and ±100 for the full control effect; nearly all actives have a fitted effect of over 75% in size
Method in brief: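 Cells: HEK293-ATXN2-FFLuc, phenol-red free DMEM, 2 h attachment. Compound pin-transfer, 24 h, 37 degrees C, 5% CO2. CellTiter-Fluor 30 min, Ex405/Em525; Bright-Glo 5 min, luminescence 2 s exposure.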

[12] = molecular target: Voltage-gated inwardly rectifying potassium channel KCNH2 (Homo sapiens) (UniProt Q12809); assay: qHTS Assay for Small Molecule Inhibitors of the Human hERG Channel Activity (AID 588834); settings: U2OS BacMam hERG, FluxOR thallium flux fluorescence; at 46.1 µM (top of the series) unless noted;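 note: U2OS cells transduced with hERG by BacMam; top concentration of the series differs between compounds; % is set by controls: 0 for no effect and ±100 for the full control effect; lower thallium flux fluorescence means stronger hERG block; nearly all actives have a fitted effect of over 50% in size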
[13] = molecular target: Glutaminase kidney isoform, mitochondrial (Homo sapiens) (UniProt O94925); assay: qHTS for Inhibitors of Glutaminase (GLS): LOPAC Validation (AID 624146);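 note: glutamate product detected by oxidase and peroxidase coupled Amplex red fluorescence gain; % is set by controls: 0 for no effect and ±100 for the full control effect; nearly all actives have a fitted effect of over 60% in size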
Method in brief: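 Coupled fluorescence readout: glutamate oxidase/HRP/Amplex Red detect glutamate formed by hKGA from L-glutamine (1 mM solution added). Buffer 45 mM KH2PO4 pH 8.2, 0.02% Tween-20; reads at t0 and 30 min RT.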

[14] = molecular target: Glucagon-like peptide 1 receptor (Homo sapiens) (UniProt P43220); assay: qHTS of GLP-1 Receptor Agonists: LOPAC Validation (AID 624148); settings: GLP-1R agonist cell assay; at 46.1 µM (top of the series);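 note: luminescence from a luciferase reporter switched on by cAMP; 0% is about no effect; higher luminescence signal means agonism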
Method in brief: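 Agonism scored as increased luciferase luminescence driven by cAMP in HEK293 clones carrying GLP-1R. Cells settled 12 hours, received compound for 4-6 hr at 37 deg C, 5% CO2, and were read after 12 min detection reagent at RT.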

[15] = qHTS of Nrf2 Activators: LOPAC Validation (AID 624149); settings: Nrf2/ARE reporter cell assay; at 46.1 µM (top of the series); note: 0% is about no effect
Method in brief: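 AREc32_Fluc cells, 1000/well in OPTI-MEM with 5% FBS, grown overnight, then exposed to compounds for 24 hr at 37 deg C, 5% CO2. ARE-driven firefly luciferase read by Steady-Glo luminescence after 30 min at RT.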

[16] = HTS Assay for Allosteric Antagonists of the Human D2 Dopamine Receptor: Hit Validation in HTRF (AID 624455); settings: D2 receptor cells, HTRF cAMP read-out, antagonist mode; at 46.1 µM (top of the series);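 note: stable D1 dopamine receptor cell line scored for blocking the D1 response; % is set by controls: 0 for no effect and ±100 for the full control effect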
Method in brief: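 Hit validation in cells stably expressing the D1 dopamine receptor, run in HTRF format. Compounds were tested for their ability to inhibit the D1-mediated response.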

CN(CCCl)Cc1cc(Cl)c(NC2=NCCN2)c(Cl)c1
inactive: activity change, positive = ELG1 induction [1] -0.542% | activity change, negative = decrease [2] -7.77% | activation [3] 1.56% | activity change [4] 1.06% | activity change, negative = inhibition [5] 4.77% | activity (re-replication induction) [6] 25.3% | activity, negative = inhibition [7] 0.0722% | activation [8] -2.19% | activity change, negative = inhibition [9] -9.54% | activity change, negative = cytotoxicity [10] -18.2% | activity change, negative = inhibition [11] -8.62% | activity change, negative = inhibition [12] -19.8% | Potency [13] | activation [14] -1.67% | activation [15] 1.1% | activity, negative = inhibition [16] 0.436%

Source: PubChem BioAssay (NCATS)
